The entries are a selection whose mix differs from that of the whole data set. The source made the active and inactive calls.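 Rule for the calls: active = inhibition above the mean inhibition of all tested compounds plus 3 SD (cut at about 73% in these data); inactive = the rest.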

Protein sequences, listed by entry. Tags and fused reporters are not part of them.
UniProt O00482, whole entry: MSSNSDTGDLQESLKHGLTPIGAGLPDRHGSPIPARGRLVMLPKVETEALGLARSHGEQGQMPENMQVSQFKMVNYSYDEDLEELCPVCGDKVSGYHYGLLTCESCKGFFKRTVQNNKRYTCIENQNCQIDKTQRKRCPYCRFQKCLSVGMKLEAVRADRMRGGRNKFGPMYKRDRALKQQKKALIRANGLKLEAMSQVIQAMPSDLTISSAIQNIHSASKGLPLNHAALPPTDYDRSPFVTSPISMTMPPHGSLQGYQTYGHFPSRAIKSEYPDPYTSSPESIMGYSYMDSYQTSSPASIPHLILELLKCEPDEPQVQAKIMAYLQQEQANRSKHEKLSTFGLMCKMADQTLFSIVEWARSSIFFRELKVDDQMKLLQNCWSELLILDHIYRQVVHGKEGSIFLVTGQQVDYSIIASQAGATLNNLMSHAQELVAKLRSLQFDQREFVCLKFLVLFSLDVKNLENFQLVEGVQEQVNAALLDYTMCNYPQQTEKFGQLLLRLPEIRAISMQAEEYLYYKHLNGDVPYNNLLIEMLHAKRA

The target in this experiment is Nuclear receptor subfamily 5 group A member 2 (Homo sapiens) (UniProt O00482). In words: reduction of NR5A2-driven StAR reporter activity – cell-based, luminescence, HEK293T, StAR-luciferase reporter, primary screen (AID 602396).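 Note: 0% = DMSO wells and 100% = reporter-only cells lacking LRH-1.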 The settings on record: LRH-1 transfected, 24 h, at 3.6 µM, stronger effect = higher value. In general terms: Reporter assays use an easily measured gene product as a stand-in for the process of interest.
With `CSc1ccc(C(=O)NCC2(N3CCOCC3)CCCCC2)cc1`, the inhibition was inactive: -44.5%.

In the case of `O=C(NCC1(N2CCCCC2)CCCCC1)c1cccc([N+](=O)[O-])c1`, the inhibition was inactive: -22.3%.

For the compound `N#CC1(Nc2ccccc2)CCN(CCc2ccccc2)CC1`, the inhibition is inactive: 6.69%.

Turning to `O=c1[nH]c2ccccc2n1C1CCN(C(c2ccccc2OC(F)(F)F)c2nnnn2C2CCCC2)CC1` (stereo unspecified), the inhibition was inactive: -21.8%.

Regarding `CCN1CCC(Nc2ccc(Cl)cc2)CC1`, the inhibition was inactive: -0.67%.

On to `O=C(NCC1(N2CCCCC2)CCCCC1)c1ccc(OC(F)F)cc1`, for which the inhibition was inactive: -15.8%.

Regarding `CC(C)(C)n1nnnc1C(c1ccccc1OC(F)(F)F)N1CCC(n2c(=O)[nH]c3ccccc32)CC1` (stereo unspecified), the inhibition was inactive: 15.6%.

As for `CCCCn1nnnc1C(c1cccc2ccccc12)N1CCC(n2c(=O)[nH]c3ccccc32)CC1` (stereo unspecified), the inhibition was inactive: 6.31%.

With `CN1CCN(CCOC(=O)C(O)(c2ccccc2)c2ccccc2)CC1`, the inhibition is inactive: -6.04%.

As for `COc1ccc(NC2CCN(C(=O)OC(C)(C)C)CC2)cc1`, the inhibition was inactive: -7.49%.

With `CC(C)c1ccc(C(=O)NCC2(N3CCOCC3)CCCCC2)cc1`, the inhibition was inactive: -30.5%.

For the compound `COc1cc(C(=O)NCC2(N3CCCCC3)CCCCC2)ccc1OC(F)F`, the inhibition was inactive: -50.9%.

On to `O=C(NCC1(N2CCOCC2)CCCCC1)c1cc(=O)[nH]c2ccccc12`, for which the inhibition is inactive: -12.6%.

On to `O=C(NCC1(N2CCCCC2)CCCCC1)c1cccc(C(F)(F)F)c1`, for which the inhibition was inactive: -18.4%.

On to `COc1ccc(NC2CCN(CCc3ccccc3)CC2)c(OC)c1`, for which the inhibition was inactive: 1.36%.

Turning to `CCOC(=O)N1CCC(Nc2ccc(F)cc2)CC1`, the inhibition was inactive: 15.5%.

With `O=C(NCC1(N2CCCCC2)CCCCC1)c1ccc(F)cc1`, the inhibition is inactive: -13.7%.

Consider `O=P1(N(CCCl)CCCl)SCCCS1`, for which the inhibition was inactive: -16.1%.

Turning to `CCCCn1nnnc1C(c1cc2ccccc2o1)N1CCC(n2c(=O)[nH]c3ccccc32)CC1` (stereo unspecified), the inhibition is inactive: -21.5%.

Regarding `CCCCOc1ccc(C(=O)NCC2(N3CCOCC3)CCCCC2)cc1`, the inhibition was inactive: -9.61%.

As to `CCOc1ccc(C)cc1CN(CCCl)CCCl`, the inhibition is inactive: 13.8%.

For `O=C1CCN(Cc2ccccc2)CC1`, the inhibition is inactive: -7.1%.

On to `CC(C)(C)n1nnnc1C(c1ccccc1)N1CCC(n2c(=O)[nH]c3ccccc32)CC1` (stereo unspecified), for which the inhibition is inactive: -0.14%.

Take `O=c1[nH]c2ccccc2n1C1CCN(C(c2cccc3ccccc23)c2nnnn2C2CCCC2)CC1` (stereo unspecified): the inhibition was inactive: 16.2%.

In the case of `COc1cc(C(=O)NCC2(N(C)C)CCCCC2)ccc1OC(F)F`, the inhibition is inactive: 15.9%.

Take `CCOC(=O)N1CCC(Nc2cccc(C)c2)CC1`: the inhibition was inactive: -12.6%.

What is called inhibition is the drop in the measured response relative to a control, in per cent.

The record behind these values is PubChem BioAssay AID602396 (The Scripps Research Institute Molecular Screening Center, 2012).
